Reference: ChEMBL document CHEMBL4396893, “The chemical biology of apoptosis: Revisited after 17 years” (Eur J Med Chem, 2019)

Protein sequences, listed by entry. Tags and fused reporters are not part of them.
UniProt P10415, whole entry: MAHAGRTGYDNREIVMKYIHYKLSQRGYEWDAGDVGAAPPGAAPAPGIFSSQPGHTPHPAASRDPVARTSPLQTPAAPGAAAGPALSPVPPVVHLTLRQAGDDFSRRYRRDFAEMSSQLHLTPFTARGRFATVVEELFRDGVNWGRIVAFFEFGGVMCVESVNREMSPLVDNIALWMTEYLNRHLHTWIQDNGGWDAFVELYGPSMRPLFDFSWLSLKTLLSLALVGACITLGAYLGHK

Target: Apoptosis regulator Bcl-2 (Homo sapiens, UniProt P10415)
Experiment: Inhibition of Flu-Bax peptide binding to Bcl2 (unknown origin) by time-resolved fluorescence resonance energy transfer assay

CC1(C)CCC(c2ccc(Cl)cc2)=C(CN2CCN(c3ccc(C(=O)NS(=O)(=O)c4ccc(N[C@H](CCN5CCOCC5)CSc5ccccc5)c(S(=O)(=O)C(F)(F)F)c4)cc3)CC2)C1 [NAVITOCLAX]
Ki: < 1 nM
